Measured values as given in publication PMC4559800.

Target: rat monocarboxylate transporter MCT1 (rat) (UniProt P53987)

rate of lactate-induced rise in intracellular H+ (Δ[H+]i/Δt; MCT1 transport activity) in Xenopus oocytes coexpressing MCT1 and CAIX-WT, against MCT1 alone: 180%
Substance: human carbonic anhydrase IX, wild type (from UniProt Q16790 38-459) (enzyme)
